Assay results reported in ChEMBL document CHEMBL1153804, “Optimization of a series of quinazolinone-derived antagonists of CXCR3” (Bioorg Med Chem Lett, 2009).

Test: Antagonist activity against human CXCR3 expressed in human PBMC assessed as inhibition of cell migration in response to ITAC in plasma

## CCS(=O)(=O)CCN(C(=O)Cc1ccc(F)c(C(F)(F)F)c1)[C@H](C)c1nc2ncccc2c(=O)n1-c1ccc(C#N)cc1
  IC50: 115 nM
